Assay results from patent US9045498B2, “Hexahydropyrano[3,4-d][1,3]thiazin-2-amine compounds” (Pfizer Inc., priority 2012, dated 2015).

The chains behind the UniProt entries cited, without tags or fusion partners. Residues count along the entry.
UniProt Q9Y5Z0, 63-518: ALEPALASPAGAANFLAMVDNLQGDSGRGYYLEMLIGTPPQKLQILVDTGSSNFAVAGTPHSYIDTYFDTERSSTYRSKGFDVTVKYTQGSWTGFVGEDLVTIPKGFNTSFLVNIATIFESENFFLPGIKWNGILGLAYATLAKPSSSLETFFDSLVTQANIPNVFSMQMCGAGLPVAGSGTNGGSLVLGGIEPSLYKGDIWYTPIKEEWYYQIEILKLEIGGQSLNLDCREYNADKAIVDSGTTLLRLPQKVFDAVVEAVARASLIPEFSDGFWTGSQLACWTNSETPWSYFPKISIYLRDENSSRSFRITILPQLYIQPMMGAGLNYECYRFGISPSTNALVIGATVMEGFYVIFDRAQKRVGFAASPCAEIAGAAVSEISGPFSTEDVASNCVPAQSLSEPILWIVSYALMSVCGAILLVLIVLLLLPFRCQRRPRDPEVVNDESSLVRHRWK
UniProt P56817, 46-457: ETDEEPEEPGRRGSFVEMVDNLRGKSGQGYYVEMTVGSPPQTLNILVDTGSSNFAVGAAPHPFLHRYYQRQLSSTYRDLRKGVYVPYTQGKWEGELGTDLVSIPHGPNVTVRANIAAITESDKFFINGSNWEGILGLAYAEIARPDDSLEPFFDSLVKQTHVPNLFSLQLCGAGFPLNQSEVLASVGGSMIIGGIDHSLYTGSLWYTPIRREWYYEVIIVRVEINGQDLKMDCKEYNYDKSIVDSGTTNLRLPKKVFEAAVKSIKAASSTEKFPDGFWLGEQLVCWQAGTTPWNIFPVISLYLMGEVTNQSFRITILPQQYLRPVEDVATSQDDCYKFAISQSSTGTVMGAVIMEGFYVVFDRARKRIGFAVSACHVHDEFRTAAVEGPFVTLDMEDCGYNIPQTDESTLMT

Legend:
[1] = biological target: BACE2 enzyme (Homo sapiens (Human), UniProt Q9Y5Z0); test: BACE2 Cell-free Assay (fluorescence polarization); format: biochemical; settings: pH 4.5, 3 hours at 37° C.; number of determinations per footnote a, b, d
Protocol: This assay measures the inhibition of the BACE2 enzyme as it cleaves a non-native peptide. A synthetic substrate that can be cleaved by BACE2 having N-terminal biotin and made fluorescent by the covalent attachment of Oregon Green at the Cys residue is used to assay BACE2 activity in the presence or absence of the inhibitory compounds. The substrate is Biotin-[…]-C(Oregon green)-KK-OH. The BACE2 enzyme is available from Enzo Life Sciences (Cat # BML-SE550). Compounds are incubated in a ½ log dose response curve from a top concentration of 100 μM with BACE2 enzyme and the biotinylated fluorescent peptide in 384-well black plates (Thermo Scientific #4318). BACE2 is at a final concentration of 2.5 nM with a final concentration of peptide substrate of 150 nM in a reaction volume of 30 μL assay buffer (100 mM sodium acetate, pH 4.5 (brought to pH with acetic acid), and 0.001% Tween-20). Plates are covered and incubated for 3 hours at 37° C. The reaction is stopped with the addition of 30 μL of 1.5 μM Streptavidin (Pierce, #21125). After a 10 minute incubation at room temperature, plates are read on a Perkin Elmer EnVision for fluorescence polarization (Ex485 nm/Em530 nm). The activity of the beta-secretase enzyme is detected by changes in the fluorescence polarization that occur when the substrate is cleaved by the enzyme.

[2] = biological target: BACE1 enzyme (Homo sapiens (Human), UniProt P56817); test: BACE1 Cell-Free Assay (fluorescence polarization); format: biochemical; settings: geometric mean of 2-3 determinations; pH 4.5, 3 hours at 37° C.
Description: This assay measures the inhibition of the beta-secretase enzyme as it cleaves a non-native peptide.
A synthetic APP substrate that can be cleaved by beta-secretase having N-terminal biotin and made fluorescent by the covalent attachment of Oregon Green at the Cys residue is used to assay beta-secretase activity in the presence or absence of the inhibitory compounds. […] The BACE1 enzyme is affinity purified material from conditioned media of CHO-K1 cells that have been transfected with a soluble BACE construct (BACE1deltaTM96His). Compounds are incubated in a ½ log dose response curve from a top concentration of 100 μM with BACE1 enzyme and the biotinylated fluorescent peptide in 384-well black plates (Thermo Scientific #4318). BACE1 is at a final concentration of 0.1 nM with a final concentration of peptide substrate of 150 nM in a reaction volume of 30 μL assay buffer (100 mM sodium acetate, pH 4.5 (brought to pH with acetic acid), and 0.001% Tween-20). Plates are covered and incubated for 3 hours at 37° C. […] After a 10 minute incubation at room temperature, plates are read on a PerkinElmer EnVision for fluorescence polarization (Ex485 nm/Em530 nm). The activity of the beta-secretase enzyme is detected by changes in the fluorescence polarization that occur when the substrate is cleaved by the enzyme.

IC50 [1] [nM] | IC50 [2] [nM] | Compound
2800 | – | N#Cc1cc([C@]23CO[C@@H](COCc4ccccc4)C[C@H]2CSC(N)=N3)c(F)cc1F [Example 2, 5-[(4aR,6R,8aS)-2-Amino-6-[(benzyloxy)methyl]-4,4a,5,6-tetrahydropyrano[3,4-d][1,3]thiazin-8a(8H)-yl]-2,4-difluorobenzonitrile]
– | 854 | N#Cc1cc([C@]23CO[C@@H](CF)C[C@H]2CSC(N)=N3)c(F)cc1F [Example 4, 5-[(4aR,6R,8aS)-2-Amino-6-(fluoromethyl)-4,4a,5,6-tetrahydropyrano[3,4-d][1,3]thiazin-8a(8H)-yl]-2,4-difluorobenzonitrile]
– | 320 | COC[C@H]1C[C@H]2CSC(N)=N[C@@]2(c2cc(C#N)c(F)cc2F)CO1 [Example 5, 5-[(4aR,6R,8aS)-2-Amino-6-(methoxymethyl)-4,4a,5,6-tetrahydropyrano[3,4-d][1,3]thiazin-8a(8H)-yl]-2,4-difluorobenzonitrile]
